From US9611297B1, “Compositions and methods for the treatment of cast nephropathy and related conditions” (Thrasos Therapeutics Inc., priority 2016, dated 2017) come the findings set out here.

The nature of series [1]: Urine recovery and clearance after 2 hour IV infusion in rats. It is filed as in vivo, rat. On the procedure: (§1) The plasma pharmacokinetics of SEQ ID No. 27 was evaluated following intravenous (IV) bolus injection (FIG. 1) and 2 hour IV infusion (FIG. 2) in rats. Similarly, FIG. 3 plasma pharmacokinetics of SEQ ID No. 27 following intraperitoneal injection of SEQ ID No. 27 when compared with SEQ ID No. 4 in rat.

Series [2] in a line: Plasma pharmacokinetics in rat (IV bolus, IV infusion, intraperitoneal injection). It is filed as in vivo. To be noted: broad range of doses. On the procedure: as §1
In series [3] the target is T1, uromodulin binding to light chain BER (subtype lambda) (Homo sapiens, UniProt P07911).
T1 construct: Uromodulin was precipitated from fresh urine from healthy donors using 0.58M NaCl; from tissue; host or cells: urine of healthy human donors (uromodulin); SP2/0 cells (light chain BER)
The series can be described thus: ELISA: inhibition of biotin-uromodulin binding to plate-coated light chain clone BER. Here is the method:
(§2) Uromodulin was precipitated from fresh urine from healthy donors using 0.58M NaCl. The precipitate was then washed with 0.58M NaCl and resuspended in water. […] Samples were then stored at −20° C. without lyophilization.
(§3) Enzyme-linked immunosorbant assays (ELISA) were performed on the disclosed peptides. Plates were coated with the following light chain clones overnight at 4° C.: 0.05 uM BER (subtype lambda, isolated from SP2/0 cells), 0.2 uM ROC (subtype kappa, isolated from CHO cells), and 0.3 uM BEN (subtype lambda, isolated from CHO cells). The plates were washed and treated with bovine serum albumin (BSA) overnight at 4° C. For peptide plates, 10 nM biotin-uromodulin was mixed with peptide overnight at 4° C.
Background: ELISA stands for enzyme-linked immunosorbent assay.

In series [4] the target is T2, uromodulin binding to light chain BEN (subtype lambda) (Homo sapiens, UniProt P07911).
T2 construct: Uromodulin was precipitated from fresh urine from healthy donors using 0.58M NaCl; from tissue; host or cells: urine of healthy human donors (uromodulin); CHO cells (light chain BEN)
As to the kind of experiment: ELISA: inhibition of biotin-uromodulin binding to plate-coated light chain clone BEN. Here is the method:
as §2, §3

The nature of the next series: Stability in plasma. It is filed as in vitro ADME. From the text:
(§4) Binding inhibition, stability, and solubility data was obtained for peptides of the Formula SEQ ID No. 1. MLC90 represents the lowest IC50 at which uromodulin binding to 90% of the light chains tested was inhibited. KBB is kidney brush border enzyme.

The subject of series [5] is kidney brush border enzyme. As to the kind of experiment: Stability against kidney brush border enzyme (KBB). It is filed as in vitro ADME.
Description: as §4

The nature of a further series: Stability in urine. It is filed as in vitro ADME.
Description: as §4

A further series in a line: Solubility in saline. To be noted: read-out: Solubility (saline, mg/mL). It is filed as physicochemical.
Description: as §4

The target in series [6] is T3, uromodulin binding to light chain ROC (subtype kappa) (Homo sapiens, UniProt P07911).
T3 construct: Uromodulin was precipitated from fresh urine from healthy donors using 0.58M NaCl; from tissue; host or cells: urine of healthy human donors (uromodulin); CHO cells (light chain ROC)
The series can be described thus: ELISA: inhibition of biotin-uromodulin binding to plate-coated light chain clone ROC. Here is the method:
Uromodulin was precipitated from fresh urine from healthy donors using 0.58M NaCl. The precipitate was then washed with 0.58M NaCl and resuspended in water. The uromodulin was dialyzed extensively against water to remove salt and other contaminants (MWCo=50 KD). Samples were then stored at −20° C. without lyophilization. Good overall purity was seen by gel electrophoresis.
as §3

The target of series [7] is T4, uromodulin binding to 90% of the light chains tested (Homo sapiens, UniProt P07911).
T4 construct: Uromodulin was precipitated from fresh urine from healthy donors using 0.58M NaCl; from tissue; host or cells: urine of healthy human donors (inferred: the only uromodulin preparation described)
As to the kind of experiment: Binding inhibition MLC90 (ex vivo conditions).
Description: as §4

In the case of `CC[C@H](C)[C@@H]1NC(=O)[C@H](CO)NC(=O)[C@@H](Cc2ccc(O)cc2)NC(=O)[C@H](CO)NC(=O)[C@H](CCC(N)=O)NC(=O)[C@H](CCC(N)=O)NC(=O)[C@@H](NC(=O)CCCCCN)CSSC[C@@H](C(=O)N[C@H](CCCCN)C(=O)N[C@H](CCCCN)C(N)=O)NC(=O)[C@H]([C@@H](C)O)NC(=O)[C@H](Cc2ccc(O)cc2)NC(=O)[C@@H]2CCCN2C1=O` [SEQ ID No. 27, AhaCQQSY*SIPYTCK*K*], in [1], the clearance rate result is “essentially equal to the glomerular filtration rate”. Also, in [1] (infusion of 10 mg/kg for 2 hours, mean±SD), the “percentage of intact peptide recovered in the urine” value is recorded as 100%±22%. In addition, the dose-exposure proportionality result in series [2] is recorded as “very good dose-exposure proportionally over a broad range of doses”.
As a reminder, the IC50 is the concentration that inhibits the measured activity by half. The low end stands for inhibition by little substance, the high end for a need for much substance. Take `CC(C)[C@@H]1NC(=O)CNC(=O)[C@H](C(C)C)NC(=O)[C@H](CO)NC(=O)[C@H](CC(N)=O)NC(=O)[C@H](CC(=O)O)NC(=O)[C@H](Cc2c[nH]c3ccccc23)NC(=O)[C@H](C(C)C)NC(=O)[C@H](CCC(N)=O)NC(=O)[C@@H](NC(=O)CCCCCN)CSSC[C@@H](C(=O)N[C@@H](CCCCN)C(=O)N[C@@H](CCCCN)C(N)=O)NC1=O` [compound 5]: the half-inhibitory concentration (IC50) in series [3] was no less than 500 µM; in series [4], greater than 120 µM.
Take `CC[C@H](C)[C@@H]1NC(=O)[C@H](CO)NC(=O)[C@H](Cc2ccc(O)cc2)NC(=O)[C@H](CO)NC(=O)[C@H](CCC(N)=O)NC(=O)[C@H](CCC(N)=O)NC(=O)[C@@H](NC(=O)CCCCCN)CSSC[C@@H](C(=O)N[C@@H](CCCCN)C(=O)N[C@@H](CCCCN)C(N)=O)NC(=O)[C@H]([C@@H](C)O)NC(=O)[C@H](Cc2c[nH]c3ccccc23)NC(=O)[C@@H]2CCCN2C1=O` [compound 11]: in the series “Stability in plasma”, the “Stability Plasma50%” value was less than 5 min. The “Stability KBB50%” value in [5] is 5 min. Also, the “Stability Urine80%” value in the series “Stability in urine” is greater than 2 h. Further, the solubility in the series “Solubility in saline” was no less than 100 mg/mL.
For `CC(C)C[C@@H]1NC(=O)[C@@H]2CCCN2C(=O)[C@H](CC(C)C)NC(=O)[C@H](CO)NC(=O)[C@H](CC(=O)O)NC(=O)[C@H](Cc2ccc(O)cc2)NC(=O)[C@H](CCC(N)=O)NC(=O)[C@H](CCC(N)=O)NC(=O)[C@@H](NC(=O)CCCCCN)CSSC[C@@H](C(=O)N[C@@H](CCCCN)C(=O)N[C@@H](CCCCN)C(N)=O)NC(=O)[C@H]([C@@H](C)O)NC1=O` [compound 13], the IC50 in series [4] amounted to 3.3 µM.
In the case of `CC[C@H](C)[C@@H]1NC(=O)[C@@H]2CCCN2C(=O)[C@H](CC(C)C)NC(=O)[C@H](Cc2ccc(O)cc2)NC(=O)[C@H](CO)NC(=O)[C@H](Cc2ccc(O)cc2)NC(=O)[C@H](CCC(N)=O)NC(=O)[C@H](CCC(N)=O)NC(=O)[C@@H](NC(=O)CCCCCN)CSSC[C@@H](C(=O)N[C@H](CCCCN)C(=O)N[C@H](CCCCN)C(N)=O)NC(=O)[C@H]([C@@H](C)O)NC1=O` [compound 14], the half-maximal inhibitory concentration (IC50) is 17.3 µM in series [3], 2.8 µM in series [4] and 20.9 µM in series [6].
In [4], `CC(C)C[C@@H]1NC(=O)[C@H](C)NC(=O)[C@H](CO)NC(=O)[C@H](CO)NC(=O)CNC(=O)[C@H](Cc2ccc(O)cc2)NC(=O)[C@H](Cc2c[nH]cn2)NC(=O)[C@H](CCC(N)=O)NC(=O)[C@@H](NC(=O)CCCCCN)CSSC[C@@H](C(=O)N[C@@H](CCCCN)C(=O)N[C@@H](CCCCN)C(N)=O)NC(=O)[C@H]([C@@H](C)O)NC1=O` [compound 19] came in with an IC50 of 3.3 µM.
Consider `CC[C@H](C)[C@@H]1NC(=O)[C@H](CO)NC(=O)[C@@H](Cc2ccc(O)cc2)NC(=O)[C@H](CO)NC(=O)[C@H](CCC(N)=O)NC(=O)[C@H](CCC(N)=O)NC(=O)[C@@H](NC(=O)CCCCCN)CSSC[C@@H](C(=O)N[C@H](CCCCN)C(=O)N[C@H](CCCCN)C(N)=O)NC(=O)[C@H]([C@@H](C)O)NC(=O)[C@H](Cc2ccc(O)cc2)NC(=O)[C@@H]2CCCN2C1=O` [compound 27], for which the IC50 in series [3] was found to be 27.1 µM; in series [4], 2.8 µM; in series [6] it was 26.5 µM; in series [7], 27.1 µM. For the same molecule, the “Stability Plasma50%” value in the series “Stability in plasma” is on record as greater than 120 min. Also, the “Stability KBB50%” value in series [5] is recorded as greater than 60 min. The “Stability Urine80%” value in “Stability in urine” was greater than 2 h. The solubility in “Solubility in saline” is no less than 100 mg/mL.
As for `C[C@@H](O)[C@@H]1NC(=O)[C@H](Cc2ccc(O)cc2)NC(=O)[C@@H]2CCCN2C(=O)[C@H](CCC(=O)O)NC(=O)[C@H](CO)NC(=O)[C@H](Cc2ccc(O)cc2)NC(=O)[C@H](CO)NC(=O)[C@H](CCC(N)=O)NC(=O)[C@H](CCC(N)=O)NC(=O)[C@@H](NC(=O)CCCCCN)CSSC[C@@H](C(=O)N[C@@H](CCCCN)C(=O)N[C@@H](CCCCN)C(N)=O)NC1=O` [compound 33], the IC50 in series [3] and in [6] was greater than 120 µM throughout.
For `CC[C@H](C)[C@@H]1NC(=O)[C@H](CO)NC(=O)[C@H](Cc2ccc(O)cc2)NC(=O)[C@H](CO)NC(=O)[C@H](CCC(N)=O)NC(=O)[C@H](CCC(N)=O)NC(=O)[C@@H](NC(=O)CCCCCN)CSSC[C@@H](C(=O)N[C@@H](CCCCN)C(=O)N[C@@H](CCCCN)C(N)=O)NC(=O)[C@H]([C@@H](C)O)NC(=O)[C@H](Cc2ccc(O)cc2)NC(=O)[C@H](CCC(=O)O)NC1=O` [compound 34], the results for the IC50 in series [3] and in series [6] were greater than 500 µM and greater than 120 µM, respectively.
In the same order, the values of `CC[C@H](C)[C@@H]1NC(=O)[C@H](CO)NC(=O)[C@H](Cc2ccc(O)cc2)NC(=O)[C@H](CO)NC(=O)[C@H](CCC(N)=O)NC(=O)[C@H](CCC(N)=O)NC(=O)[C@@H](NC(=O)CCCCCN)CSSC[C@@H](C(=O)N[C@@H](CCCCN)C(=O)N[C@@H](CCCCN)C(N)=O)NC(=O)[C@H]([C@@H](C)O)NC(=O)[C@H](CCC(=O)O)NC(=O)[C@@H]2CCCN2C1=O` [compound 35] are greater than 120 µM and greater than 120 µM.
In the same order, the values of `CC[C@H](C)[C@@H]1NC(=O)[C@H](CO)NC(=O)[C@H](Cc2ccc(O)cc2)NC(=O)[C@H](CO)NC(=O)[C@H](CCC(N)=O)NC(=O)[C@H](CCC(N)=O)NC(=O)[C@@H](NC(=O)CCCCCN)CSSC[C@@H](C(=O)N[C@@H](CCCCN)C(=O)N[C@@H](CCCCN)C(N)=O)NC(=O)[C@H](CCC(=O)O)NC(=O)[C@H](Cc2ccc(O)cc2)NC(=O)[C@@H]2CCCN2C1=O` [compound 36] are greater than 120 µM and greater than 500 µM.
Taken in the same sequence, the figures for `CC[C@H](C)[C@@H]1NC(=O)[C@H](CO)NC(=O)[C@H](Cc2ccc(O)cc2)NC(=O)[C@H](CO)NC(=O)[C@H](CCC(N)=O)NC(=O)[C@H](CCC(N)=O)NC(=O)[C@@H](NC(=O)CCCCCN)CSSC[C@@H](C(=O)N[C@@H](CCCCN)C(=O)N[C@@H](CCCCN)C(N)=O)NC(=O)[C@H]([C@@H](C)O)NC(=O)[C@H](Cc2ccc(O)cc2)NC(=O)[C@H](CCCNC(=N)N)NC1=O` [compound 43] were greater than 500 µM and greater than 120 µM.
As to `CC[C@H](C)[C@@H]1NC(=O)[C@H](CO)NC(=O)[C@H](Cc2ccc(O)cc2)NC(=O)[C@H](CO)NC(=O)[C@H](CCC(N)=O)NC(=O)[C@H](CCC(N)=O)NC(=O)[C@@H](NC(=O)CCCCCN)CSSC[C@@H](C(=O)N[C@@H](CCCCN)C(=O)N[C@@H](CCCCN)C(N)=O)NC(=O)[C@H](CCCNC(=N)N)NC(=O)[C@H](Cc2ccc(O)cc2)NC(=O)[C@@H]2CCCN2C1=O` [compound 45], the IC50 in [3] and in series [6] was greater than 500 µM throughout.
With `CC[C@H](C)[C@@H]1NC(=O)[C@H](CO)NC(=O)[C@@H](Cc2ccc(O)cc2)NC(=O)[C@H](CO)NC(=O)[C@H](CCC(N)=O)NC(=O)[C@H](CCC(N)=O)NC(=O)[C@@H](NC(=O)CCCCCN)C(C)(C)SSC(C)(C)[C@@H](C(=O)N[C@H](CCCCN)C(=O)N[C@H](CCCCN)C(N)=O)NC(=O)[C@H]([C@@H](C)O)NC(=O)[C@H](Cc2ccc(O)cc2)NC(=O)[C@@H]2CCCN2C1=O` [compound 48], the IC50 in [3] and in [6] was 120 µM in each case.
